Data on three compounds can be found in PubChem BioAssay AID504832 (National Center for Advancing Translational Sciences (NCATS), 2011).

Only a part is listed here, and it is no random draw. Records with an inconclusive call do not appear. Active and inactive are the calls of the source. Calls follow the shape of the dose curve; as a rule, active = well fitted inhibition curve with a large enough effect; inconclusive = small, poorly fitted or top-dose-only effect, or another doubt; inactive = no such curve, though single readings can be large or run the other way.
% is scaled to controls: 0 for no effect and ±100 for the full control effect; potency is read from the fitted curve at half-maximal effect.

The assay in a line: Primary qHTS for delayed death inhibitors of the malarial parasite plastid, 48 hour incubation. To be noted: P. falciparum luciferase growth in erythrocytes; series mostly up to 28.7 µM; activity change, negative = inhibition: at the top concentration. The source says:
The goal of this screen is to discover new antimalarial compounds that act by inhibiting the development of the apicoplast in the malarial parasite Plasmodium falciparum. The biochemical processes that make this organelle essential for erythrocytic stage parasites are not well understood. However, antibiotics such as azithromycin and tetracycline, which target the apicoplast translational machinery, have a potent antimalarial effect.
We have developed a cell-based assay that measures parasite growth based on the expression of an integrated copy of a firefly luciferase reporter. To detect small molecules that cause this "delayed death" phenotype, erythrocytes infected with the luciferase-expressing parasites were incubated with compounds for either one or two generations, corresponding to 48 and 96 hours, respectively. Compounds that inhibit parasite growth in the second generation, but not the first, should be enriched in antimalarials that target the apicoplast. Growth inhibition is detected by a decrease in luciferase activity.
Assay Provider: David Fidock and Eric Ekland, Columbia University
Keywords: NIH Roadmap, MLPCN, MLI, MLSMR, qHTS, NCGC, qHTS, malaria, luciferase, viability
Four microliters of culture medium (RPMI 1640 with 0.5% w/v Albumax (GIBCO), 24 mM sodium bicarbonate and 10 ug/mL gentamycin) were dispensed by a Multi-drop Combi into white solid 1536-well plates (Grenier) and 23 nL compound was added by a pin tool. Four microliters of infected erythrocytes (2% hematocrit, 0.1% parasitemia final concentration) in culture medium were dispensed and the plates incubated for 48 hours at 37 C in 5% CO2. Two microliters of luciferase detection reagent was added and luminescence was detected by a ViewLux (PerkinElmer) reader.
A general note: qHTS replaces the single test concentration by a dilution series.
For `CC(Cc1ccc(O)cc1)NCC(O)c1cc(O)cc(O)c1` (stereo not drawn), the “activity change, negative = inhibition” value is inactive: 33.9%.
Regarding `COc1ccc(C[C@H](C)NC[C@@H](O)c2ccc(O)c(NC=O)c2)cc1`, the Potency was active: 16.9 µM.
`C[C@@H](Cc1ccc(O)cc1)NC[C@@H](O)c1cc(O)cc(O)c1`: the “activity change, negative = inhibition” value was inactive: -6.07%.
